Screens deposited in PubChem by National Center for Advancing Translational Sciences (NCATS).
Sampled rows, rich in hits. Any-hit rate of the full collection: about 3.6%.
PLK1 PBD inh – blocks phosphopeptide binding to human PLK1 polo-box domain; Potency, µM, hits mostly inhibitors; Plk1 PBD binding of FITC phosphopeptide, fluorescence polarization; AID 720504; 2.8% of 360,000 active; P53350; note: series mostly up to about 57 µM; nearly all actives have a fitted effect of over 65% in size
Rango-impB inh – prevents formation of the Rango-importin beta complex; Q14974; Rango CFP/YFP FRET sensor + importin beta, 45 min; Potency, µM (top dose mostly 92.2 µM); 0.031% of 340,000 active; calls by dose curve; note: nearly all actives have a fitted effect of over 15% in size
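FRET biosensor (snurportin 1 IBB flanked by EYFP and cerulean), 50 nM, with compound 5 min, then 0.125 microM importin beta in PBS, 1 mM DTT, 0.02% Tween-20, 0.1% BSA. CFP/YFP ratio read after 45 min at room temperature; pre-read flags interference.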
VDR inhibitor – blocks the human vitamin D receptor. P11473. VDR-SRC2-3 peptide fluorescence polarization, 2 h. Potency, µM, usual class: inhibitors. 0.93% of 400,000 active. AID 504847
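Inhibition of the VDR/SRC2-3 peptide interaction is quantified by fluorescence polarization. Compounds (23 nl, pintool) incubate with the reagents for 2 hours at ambient room temperature.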
Rango dissoc inh – inhibition of RanGTP-driven Rango-importin beta dissociation | AID 540253 | 0.071% of 340,000 active | Potency, µM (doses to about 46.1 µM) | O95149+P62826 | Biochemical FRET Rango-importin beta, RanGTP-induced dissociation; calls by dose curve; note: nearly all actives have a fitted effect of over 45% in size
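Compounds sat 5 min at room temperature with 0.1 uM Rango biosensor plus 0.25 uM importin beta, then FRET pre-read. RanGTP-RCC1 (0.6 uM Ran, 2mM GTP, 0.2 uM RCC1) added for 45 min, and the CFP/YFP post-read measured blocked complex dissociation.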
PI5P4K alpha inh – PI5P4K alpha (human) kinase inhibition; PI5P4Kalpha enzyme, ADP-Glo luminescence, 60 min; active compounds read low; max response, %; 1.2% of 330,000 active; AID 652105; active = max response of -50% or lower; inconclusive = between -30% and -50%; inactive = -30% or higher; note: value at the top dose of about 77 µM
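Controls without substrate or without enzyme flank wells where PI5P4Kalpha converts substrate using 5 microM ATP (final). Incubation lasts 60 minutes at room temperature; ADP formed is read by ADP-Glo luminescence.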
GCN5L2 inh – GCN5L2 (KAT2A) acetyltransferase inhibition | 0.21% of 390,000 active | Potency, µM (titrated, usually from 58.9 µM), actives largely listed as inhibitors | GCN5L2 HAT assay, ThioGlo1 CoA-SH fluorescence | AID 504327 | Q92830
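GCN5L2 (20nM final) in 50mM HEPES, 0.1mM EDTA pH 7.5, 0.01% Tween-20 was preincubated 15 min at room temperature with compound, then given ThioGlo1 (50uM), H3(1-25) peptide (75uM) and acetyl-CoA (70uM); CoA-thiol fluorescence (Ex340/Em540) was read at 0 and 20 min.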
Numbers stand for hits; – = inactive; ? = inconclusive; · = not tested or not shown; ! = a repeat was not active. Unless noted, calls come from the whole dose curve; as a rule, active = well fitted curve in the direction sought with a large enough effect; inconclusive = small, poorly fitted or top-dose-only effect, or another doubt; inactive = no such curve, though single readings can be large; an effect the other way counts as inactive or inconclusive.

SMILES	PLK1 PBD inh	Rango-impB inh	VDR inhibitor	Rango dissoc inh	PI5P4K alpha inh	GCN5L2 inh
CCN(CC)CCC(c1ccc(N(C)C)cc1)c1c(OC)cc(OC)c2c1OC(=O)CC2c1ccc(N(C)C)cc1 (stereo not drawn)	·	·	–	·	·	·
CCOC(=O)COc1ccc(CC)cc1C(=O)c1ccn2nc(-c3ccc(Cl)cc3)cc2n1	·	·	–	·	·	–
Cc1ccc(S(=O)(=O)Nc2ccccc2C=Nc2cccc(C)c2C)cc1	–	?	–	7.31µM	–	–
CN(C)/C=C/C(=O)c1ccc2noc(-c3ccccc3)c2c1	–	?	–	–	-69.6	–
CSc1ccc(C2C(C#N)=C(N)Oc3c2ccc(=O)c2c(C)oc(C)c32)cc1 (stereo not drawn)	–	?	–	?	-65.4	?
Cc1oc(C)c2c(=O)ccc3c(c12)OC(N)=C(C#N)C3c1ccccc1Cl (stereo not drawn)	?	?	–	?	?	–
CCOc1ccccc1NC(=O)Cn1c(=O)n(Cc2ccco2)c(=O)c2ccc(C(=O)NC3CCCC3)cc21	·	·	–	·	·	–
Cc1ccc(N2CCN(C(=O)c3c4c(nc5ccccc35)C(=O)N(C3CCCCC3)C4)CC2)c(C)c1	·	·	–	·	·	–
COc1ccc2c(c1OC)C(=O)OC2Nc1ccccn1 (stereo not drawn)	–	–	–	–	–	–
CCOC(=O)c1c(NC2OC(=O)c3c2ccc(OC)c3OC)sc(C(=O)OC(C)(C)C)c1C (stereo not drawn)	23.8µM	–	?	–	–	–
Cn1c(=O)c(N)c2c3c(c(Br)ccc31)C(=O)c1ccccc1-2	0.597µM	?	–	?	–	–
Cn1c(=O)c2c(-c3ccccc3Br)n(C(C)(C)C)cc2n(C)c1=O	·	·	–	·	·	–
O=C(c1ccc(Br)cc1)C(CN1CCOCC1)c1ccccc1 (stereo not drawn)	?	–	39.8µM	–	–	–
CCOc1ccc(C(=O)C(CN2CCOCC2)c2ccccc2)cc1 (stereo not drawn)	–	–	?	–	–	–
CN(C)CC(C(=O)c1ccccc1)c1ccccc1 (stereo not drawn)	–	–	50.1µM	–	–	–
O=C(c1ccccc1)C(CN1CCCCC1)c1ccccc1 (stereo not drawn)	?	–	25.1µM	–	–	·
O=S1(=O)c2ccccc2N(Cc2ccccc2Cl)c2ccccc21	·	·	–	·	·	–
CCc1ccccc1NC(=O)Cc1ccc(-n2cccc2)cc1	7.52µM	–	?	–	?	–
Cc1ccc(C(=O)COC(=O)C2C3C=CC(C3)C2C(=O)OCC(=O)c2ccc(C)c(C)c2)cc1C (stereo not drawn)	–	–	–	–	–	0.794µM
COc1ccc(-c2noc(-c3ccc(NCCc4ccccc4)c([N+](=O)[O-])c3)n2)cc1OC	·	·	–	·	·	–
COc1ccc(CNC(=O)CN(c2ccccc2)S(=O)(=O)N(C)C)cc1	–	–	89.1µM!	–	–	–
COc1ccc(N(CC(=O)NCC(C)C)S(=O)(=O)c2ccccc2)cc1	18.9µM	–	?	–	–	–
CCn1c(N2CCC(Cc3ccccc3)CC2)nc2c1c(=O)[nH]c(=O)n2C	29.9µM	–	–	–	–	–
C=C(c1ccc(OCCO)cc1)c1ccc(OCCO)cc1	26.7µM	–	–	–	–	–
O=C(c1ccccc1)c1ccc(OCCO)cc1	–	–	–	–	–	–
SMILES	PLK1 PBD inh	Rango-impB inh	VDR inhibitor	Rango dissoc inh	PI5P4K alpha inh	GCN5L2 inh
O=S(=O)(Nc1ccc(C(F)(F)F)cc1)c1cnc[nH]1	29.9µM	–	–	–	?	–
CC1(C)[C@H]2CC[C@]1(C)[C@@H](OC(=O)C[N+]1(C)CCOCC1)C2	–	–	–	–	–	–
CC1(C)[C@@H]2CC[C@]1(C)[C@@H](OC(=O)CSC#N)C2	·	·	50.1µM	·	·	–
O=C(N/N=C/c1ccco1)C1CC1c1ccccc1 (stereo not drawn)	–	–	–	–	-50.3	–
COC(=O)C(N)CS (stereo not drawn)	·	·	17.8µM	·	·	–
COC(=O)[C@@H](N)CS	23.8µM	–	20µM!	–	?	?
COc1ccccc1N(O)C1CC(=O)N(c2ccc(Br)cc2)C1=O (stereo not drawn)	2.99µM	–	50.1µM	–	·	–
Cc1[nH]ncc1N=Cc1ccc([N+](=O)[O-])cc1	21.2µM	–	–	–	–	–
O=C1c2ccccc2-c2onc3c(N4CCN(CCO)CC4)cc(N4CCN(C(=O)c5ccco5)CC4)c1c23	–	36.6µM	–	–	?	–
Cc1cccc(OCC(=O)N(Cc2cccc(Cl)c2)Cc2ccco2)c1C	·	·	–	·	·	–
Cc1cccc(C)c1NC(=O)C(=O)NCC(c1ccc2c(c1)OCO2)N1CCOCC1 (stereo not drawn)	·	·	–	·	·	–
CCOC(=O)c1cc(C)n(CC2CCC(C(=O)Nc3ccc(OC)cc3)CC2)c1C (stereo not drawn)	·	·	–	·	·	–
CCOC(=O)C1CCN(S(=O)(=O)c2ccc(N3CCCCS3(=O)=O)cc2)CC1	·	·	–	·	·	–
CC(=O)O[C@@H]1C(CO[Si](C)(C)C(C)(C)C)=C(Br)C(=O)[C@@H]2O[C@]12C	·	·	25.1µM	·	·	·
CCOC(=O)c1ccc(NC(=O)CC2C(=O)N(c3ccc(F)cc3)C(=O)N2Cc2ccc3c(c2)OCO3)cc1 (stereo not drawn)	·	·	–	·	·	–
Cc1ccc(NC2CCCN(C(=O)c3ccc(F)cc3)C2)cc1C (stereo not drawn)	6.7µM	–	?	–	–	–
O=C(CSc1ccccn1)N1CCN(c2ccc(Cl)cc2)CC1	23.8µM	–	–	–	–	–
Cc1ccc(NC2CCCN(C(=O)CSc3ccccn3)C2)cc1C (stereo not drawn)	23.8µM	–	?	–	–	–
O=C(CSc1ccccn1)N1CCN(C(=O)CSc2ccccn2)CC1	–	65.1µM	–	–	–	–
CCCCCCCCCCCCCCNCCO	·	·	–	·	·	–
Cc1ccc(-c2c(C(=O)N3CCN(c4cccc(C)c4)C(C)C3)oc(=O)c3ccccc23)cc1 (stereo not drawn)	·	·	–	·	·	–
CC(C)Sc1ncc(Cl)c(C(=O)Nc2ccc(S(=O)(=O)N3CCCCC3C)cc2)n1 (stereo not drawn)	·	·	–	·	·	–
CCC(=O)Nc1ccc2oc(-c3cccc(C)c3)nc2c1	2.99µM	–	?	–	?	–
COc1ccc(O)c(C(=O)c2cc(SCC(=O)O)c3nc4sc5c(c4c(=O)n3c2)CCCC5)c1	26.7µM	–	–	–	?	?
NS(=O)(=O)c1cccc(NC(=O)COC(=O)Cc2ccc(Cl)cc2)c1	–	–	–	–	–	–
NS(=O)(=O)c1cccc(NC(=O)CCCNC(=O)c2ccc(Cl)cc2)c1	–	16.4µM	–	–	–	–
O=C(CCCNC(=O)c1ccc(Cl)cc1)NCc1ccc(F)cc1	26.7µM	–	?	–	–	–
